# Hits are enriched below; roughly 2.3% of the tested compounds scored in any of these assays.
# miR-21 reporter = raises the signal of a miR-21 reporter. HeLa miR-21 FLuc reporter, luciferase, 48 h. 340,000 tested, under 10 active. Potency, µM (highest dose often 38.3 µM), for the others: at the highest dose reporter change, positive = more light; active = well fitted rising curve with a large enough effect; inconclusive = small, poorly fitted or top-dose-only effect; inactive = no such curve, though single readings can be large or run the other way;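 note: % of control where 0% means no effect; miR-21 action dims this reporter so a rising signal means less miR-21 action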
#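 HeLa cells stably expressing CMV-driven firefly luciferase with a downstream miR-21 binding sequence, endogenously expressing miR-21, were treated with titrations (up to about 40uM final) for 48 hours at 37 degree Celsius. Luciferase luminescence was read after lysis.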
# Nrf2 activator = Nrf2 pathway activation | AREc32 ARE-luciferase reporter (MCF7-derived line), luminescence, 24 h | Potency, µM (top dose mostly 46.1 µM), for inactives: at the highest dose activation, actives largely listed as activators | 410,000 tested, 0.31% active | AID 624171; note: potency is the fitted concentration of half-maximal effect; % of control where 0% means no effect; nearly all actives have a fitted effect of over 65% in size
#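 ARE activation measured as luciferase luminescence (Steady-Glo, 30 min RT) in AREc32_Fluc cells after 24 hr compound exposure at 37 deg C, 5% CO2; cells seeded overnight at 1000/well in OPTI-MEM, 5% FBS.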
# Nrf2 block = inhibitors of Nrf2 signaling; A549 ARE-Fluc reporter, luciferase luminescence, 18-24 h; Potency, µM (highest dose often 46 µM), without a hit: top-dose activity change, negative = inhibition, actives largely listed as inhibitors; 360,000 tested, 2.1% active; AID 504444; note: potency is the fitted concentration of half-maximal effect; % is set by controls: 0 for no effect and ±100 for the full control effect; nearly all actives have a fitted effect of over 60% in size
#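 Quantitative HTS in A549 cells stably bearing an antioxidant response element-firefly luciferase construct. Inhibition of Nrf2-driven transcription was scored by luminescence after 18-24 h of compound exposure at 37 °C.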
# Mito fusion yeast = inhibitors of mitochondrial division or activators of mitochondrial fusion; S. cerevisiae fusion-defective mutant growth rescue, CellTiterGlo 48 h; Potency, µM (titrated, usually from 46.1 µM), inactives show top-dose growth rescue (activation), hits mostly activators; 320,000 tested, 0.23% active; note: potency is the fitted concentration of half-maximal effect; % of control where 0% means no effect; nearly all actives have a fitted effect of over 45% in size
#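 Compounds are tested for their ability to restore growth of mitochondrial fusion-defective yeast strains at non-permissive 37C in YPEG medium over 48 hours. Viability is quantified by luciferase luminescence.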
# A549 tox-1 = counter-screen for Nrf2 inhibitors: cytotoxicity in A549 cells; A549 ARE-Fluc cells, CellTiter-Fluor viability, 18-24 h; Potency, µM (series often up to 46 µM), for the others: at the top dose activity change, negative = cytotoxicity, hits mostly inhibitors; 390,000 tested, 0.16% active; AID 504648; note: potency is the fitted concentration of half-maximal effect; % is set by controls: 0 for no effect and ±100 for the full control effect
#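 Cytotoxicity counterscreen: CellTiter-Fluor fluorescence was measured in A549 ARE_Fluc cells after 18-24 h of compound exposure in a concentration series. The subsequent BugLite luminescent read reports ARE-luciferase activity.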
# FLuc counter 3 = firefly luciferase inhibition, Nrf2 hit validation. Potency, µM (doses to about 57.5 µM), inactives show top-dose activity change, negative = inhibition, hits mostly inhibitors. purified firefly luciferase, luminescence inhibition. shares compounds with Nrf2 block. 1,400 tested, 4% active. AID 720522; note: potency is the fitted concentration of half-maximal effect; % is set by controls: 0 for no effect and ±100 for the full control effect; nearly all actives have a fitted effect of over 65% in size
# A549 tox-2 = counter-screen for Nrf2 inhibitors: cytotoxicity in A549 ARE cells; shares compounds with Nrf2 block; A549 ARE-Fluc cells, cytotoxicity counterscreen; 1,400 tested, 2% active; Potency, µM (series often up to 46.1 µM), without a hit: at the top dose activity change, negative = cytotoxicity, actives largely listed as inhibitors;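 note: potency is the fitted concentration of half-maximal effect; cells exposed to compounds for 18 to 24 hours; % is set by controls: 0 for no effect and ±100 for the full control effect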
# Nrf2 ARE inh = Nrf2 inhibition confirmed, A549 ARE-luciferase. Potency, µM (series often up to 46.1 µM), for inactives: at the top dose activity change, negative = inhibition, actives largely listed as inhibitors. 1,400 tested, 74% active. A549 ARE-firefly luciferase reporter, luminescence. shares compounds with Nrf2 block. AID 720524; note: potency is the fitted concentration of half-maximal effect; % is set by controls: 0 for no effect and ±100 for the full control effect; nearly all actives have a fitted effect of over 65% in size
# Active calls of the source: *; ? = inconclusive; / = no result given. Calls come from the whole dose curve; as a rule, active = well fitted curve in the direction sought with a large enough effect; inconclusive = small, poorly fitted or top-dose-only effect, or another doubt; inactive = no such curve, though single readings can be large; an effect the other way counts as inactive or inconclusive.
# Assay codes: A = miR-21 reporter; B = Nrf2 activator; C = Nrf2 block; D = Mito fusion yeast; E = A549 tox-1; F = FLuc counter 3; G = A549 tox-2; H = Nrf2 ARE inh
> CCC(C)C(NC(=O)CCC(=O)OCC(=O)[C@@]1(O)CCC2[C@@H]3CCC4=CC(=O)C=C[C@]4(C)C3[C@@H](O)C[C@@]21C)C(=O)O (stereo partly specified)
  A = -29.7%; B = -0.1%; C = 0.184µM*; D = -3.4%; E = 3.6%; F = 3.2%; G = -4.0%; H = 0.206µM*
> Cc1cccc(CNC(=O)CN2C(=O)C3CCCCN3c3ccc(C(=O)N4CCCC4)cc32)c1 (stereo unspecified)
  A = 0.2%; B = -0.9%; C = /; D = /; E = -9.7%; F = /; G = /; H = /
> Nc1cc[n+](CC(=O)c2ccc3c(c2)OCCO3)cc1
  A = 19.9%; B = -0.9%; C = 2.06µM*; D = 5.1%; E = ?; F = -3.7%; G = ?; H = 5.8µM*
> COc1ccccc1N1CCN(C(=O)c2nc(SC)ncc2Cl)CC1
  A = 24.4%; B = 11.2%; C = 27.0%; D = /; E = -8.5%; F = /; G = /; H = /
> Cc1oc(-c2ccc(Cl)cc2)nc1CN1CCCC(C(=O)N2CCN(C(=O)c3ccco3)CC2)C1 (stereo unspecified)
  A = ?; B = 0.5%; C = 3.26µM*; D = 2.9%; E = 16.8%; F = 0.2%; G = -15.1%; H = 6.51µM*
> Cc1oc(-c2ccc(Cl)cc2)nc1CN1CCCC(C(=O)N2CCOCC2)C1 (stereo unspecified)
  A = -1.7%; B = 3.6%; C = ?; D = -6.4%; E = 0.0%; F = /; G = /; H = /
> FC(F)(F)c1cccc(Nc2nc3nonc3nc2Nc2ccc(Cl)cc2)c1
  A = ?; B = -3.0%; C = 0.581µM*; D = /; E = 2.91µM*; F = ?; G = 4.61µM*; H = 1.03µM*
> O=C(Nc1cccc(C(F)(F)F)c1)c1cc(-c2ccc(Cl)cc2)on1
  A = -26.4%; B = 0.8%; C = -22.1%; D = /; E = 2.0%; F = /; G = /; H = /
> CSc1ccc(CCNc2ncnc3onc(-c4ccc(Cl)cc4)c23)cc1
  A = 25.5%; B = 0.3%; C = 9.2µM*; D = /; E = 2.6%; F = 1.9%; G = -3.1%; H = ?
> Fc1ccc(-c2noc3ncnc(NCCc4ccc(Cl)cc4)c23)cc1
  A = 17.2%; B = -0.8%; C = ?; D = /; E = 2.4%; F = /; G = /; H = /
> O=C(NCc1ccccc1Cl)c1ccc2oc(=O)n(Cc3ccccc3)c2c1
  A = 2.1%; B = 5.2%; C = /; D = /; E = 5.7%; F = /; G = /; H = /
> COc1cccc(C(=O)N(Cc2ccccc2)Cc2cc3cc4c(cc3[nH]c2=O)OCCO4)c1
  A = -3.9%; B = -0.2%; C = 2.59µM*; D = 2.4%; E = -18.0%; F = -4.0%; G = -23.1%; H = ?
> O=C(NCc1nnc(SCC(=O)N2CCCc3ccccc32)n1-c1ccccc1)c1cccc2ccccc12
  A = 8.0%; B = 0.4%; C = 2.59µM*; D = -11.7%; E = -11.1%; F = -1.1%; G = -18.0%; H = 10.3µM*
> COc1ccc(-c2csc(NC(=O)c3ccccc3NS(=O)(=O)c3ccc(F)c(F)c3)n2)cc1
  A = ?; B = 14.1%; C = 2.91µM*; D = -4.5%; E = ?; F = ?; G = ?; H = 4.11µM*
> Cc1sc(NC(=O)Cc2ccc3c(c2)OCO3)nc1-c1ccc2c(c1)CCN2C(=O)c1ccc(F)cc1
  A = -8.9%; B = -1.2%; C = 5.17µM*; D = 0.0%; E = 0.5%; F = -7.6%; G = 7.8%; H = 2.59µM*
> Cc1ccc(OC(C)C(=O)Nc2ccncc2)cc1C (stereo unspecified)
  A = 19.0%; B = 0.0%; C = ?; D = 0.6%; E = 10.7%; F = /; G = /; H = /
> CC(Oc1ccc(Br)cc1)C(=O)Nc1ccncc1 (stereo unspecified)
  A = 13.4%; B = -0.4%; C = 8.2µM*; D = 1.1%; E = -7.1%; F = 0.1%; G = 8.3%; H = /
> CC(C)CC(N)c1cn([C@@H](CCC(=O)O)C(=O)N2CCNCC2)nn1 (stereo partly specified)
  A = -2.7%; B = -1.3%; C = 5.4%; D = -1.0%; E = -12.7%; F = /; G = /; H = /
> CC(C)C[C@H](N)c1cn([C@@H](CCCCN)C(=O)N2CCNCC2)nn1
  A = -1.4%; B = -3.4%; C = 1.03µM*; D = -2.4%; E = ?; F = 0.1%; G = 0.9%; H = ?
> CCc1cccc(NC(=O)c2cc3c(=O)[nH]c4ccccc4c3n2C)c1
  A = -7.1%; B = 2.9%; C = ?; D = /; E = -20.2%; F = /; G = /; H = /
> COc1ccc(C(=O)CC(=O)c2ccccc2)cc1
  A = /; B = 0.9%; C = ?; D = /; E = 0.4%; F = /; G = /; H = /
> COc1ccc(C(=O)C/C(=C\C(=O)c2ccc(C)cc2)c2ccccc2)cc1
  A = ?; B = 0.0%; C = 2.59µM*; D = -5.0%; E = ?; F = 0.3%; G = -27.3%; H = 11.6µM*
> CCc1c(C)nc2ncnn2c1NCCc1ccc(Cl)cc1
  A = 21.4%; B = 2.6%; C = 7.31µM*; D = 9.8%; E = -11.1%; F = 1.0%; G = -11.7%; H = 4.61µM*
> Cc1c(C(=O)Nc2ccc3c(c2)OCCO3)sc2nc(-c3ccccc3)cn12
  A = ?; B = -0.6%; C = 6.51µM*; D = ?; E = ?; F = ?; G = -18.6%; H = 20.6µM*
> CCc1cccc(NC(=O)Cn2c(-c3ccc(F)cc3)cc(C(C)=O)c2C)c1
  A = 6.1%; B = -0.5%; C = /; D = /; E = -3.1%; F = /; G = /; H = /

# Not a retest: entries from further up.
# Assay codes: A = miR-21 reporter; B = Nrf2 activator; C = Nrf2 block; D = Mito fusion yeast; E = A549 tox-1; F = FLuc counter 3; G = A549 tox-2; H = Nrf2 ARE inh
> CCc1c(C)nc2ncnn2c1NCCc1ccc(Cl)cc1
  A = 21.4%; B = 2.6%; C = 7.31µM*; D = 9.8%; E = -11.1%; F = 1.0%; G = -11.7%; H = 4.61µM*
> Cc1c(C(=O)Nc2ccc3c(c2)OCCO3)sc2nc(-c3ccccc3)cn12
  A = ?; B = -0.6%; C = 6.51µM*; D = ?; E = ?; F = ?; G = -18.6%; H = 20.6µM*
> CCc1cccc(NC(=O)Cn2c(-c3ccc(F)cc3)cc(C(C)=O)c2C)c1
  A = 6.1%; B = -0.5%; C = /; D = /; E = -3.1%; F = /; G = /; H = /

# (next part)
# Below each SMILES: miR-21 reporter | Nrf2 activator | Nrf2 block | Mito fusion yeast | A549 tox-1 | FLuc counter 3 | A549 tox-2 | Nrf2 ARE inh
- CCCCNC(=O)CSc1nc2cc3c(cc2c(=O)n1CCCCCC(=O)NCc1ccc(OC)cc1)OCO3
  1.4% | -1.2% | / | / | -0.4% | / | / | /
- NC(=Nc1nc(-c2ccccn2)cc2ccccc12)c1ccccn1
  / | -0.9% | 1.46µM* | / | -16.7% | -3.3% | -23.4% | 1.64µM*
- N/C(=N\OC(=O)c1ccc2ccccc2c1)c1ccccn1
  21.2% | 0.3% | ? | 8.8% | 2.3% | / | / | /
- CN(Cc1cnc2nc(N)nc(N)c2n1)c1ccc(C(=O)NC(CCC(=O)O)C(=O)O)c2ccccc12 (stereo unspecified)
  / | 0.1% | 0.0411µM* | / | -23.4% | -19.8% | -18.4% | 0.0326µM*
- O=C(O)CCC(NC(=O)c1ccc(Cl)cc1)C(=O)O (stereo unspecified)
  -0.2% | -0.5% | 6.8% | 6.8% | 1.5% | / | / | /
- N#Cc1ccccc1CSc1nnc(-c2ccc(Br)cc2)o1
  -66.6% | 0.8% | ? | / | 0.8% | / | / | /
- CCOC(=O)c1ccc(NC(=O)CSc2nnc(-c3ccncc3)n2-c2ccccc2)cc1
  -0.7% | -0.5% | / | / | -3.1% | / | / | /
- CC(CC(=O)N1CCN(c2cccc(Cl)c2)CC1)S(=O)(=O)c1ccc2c(c1)NC(=O)CO2 (stereo unspecified)
  ? | -0.2% | 6.51µM* | 1.7% | ? | -1.0% | -19.0% | 23.1µM*
- Cc1cccc(CNC(=O)CN2C(=O)CSc3c2c(C)nn3-c2ccccc2)c1
  0.2% | -0.8% | ? | / | -0.5% | / | / | /
- O=C(CCCc1nc(-c2ccccc2Cl)no1)NC1CCCC1
  ? | 0.1% | 1.16µM* | 10.3% | -4.9% | ? | -0.2% | 4.61µM*
- O=C(CCCc1nc(-c2ccc(Cl)cc2)no1)NC1CCCCC1
  0.7% | 0.2% | 3.66µM* | 0.9% | -15.0% | 0.2% | -1.0% | /

# Source: PubChem (National Center for Advancing Translational Sciences (NCATS))
